Results: patent US10717729B2, “Thiamine-organic acid salt” (Purdue Research Foundation, priority 2018, dated 2020)

Conditions: dynamic moisture sorption
Experimental: Moisture sorption profiles were generated at 25° C. using an SGA-100 symmetrical gravimetric analyzer (TA Instrument, New Castle, Del.). The samples (5-20 mg) were exposed to 25% to 95% relative humidity (RH) at step size of 5% RH and from 95 to 99% RH at step size of 1% RH, with a maximum step time of 360 min. The equilibrium criteria were set to change of mass of less than 0.01% (w/w) for 5 min for each step. Nitrogen was used as the purge gas.

## thiamine mononitrate
  hygroscopic behaviour (in words): practically non-hygroscopic
